Details: cancer subjects; preliminary data, 6 subjects at 270 mg per day for 2 days and 2 subjects at 274 mg/m^2 daily for 2 days, with 15 mg Compound A; vs 80 mg/m^2 IV

For CC(=O)O[C@H]1C(=O)[C@@]2(C)[C@H]([C@H](OC(=O)c3ccccc3)[C@]3(O)C[C@H](OC(=O)[C@H](O)[C@@H](NC(=O)c4ccccc4)c4ccccc4)C(C)=C1C3(C)C)[C@]1(OC(C)=O)CO[C@@H]1C[C@@H]2O [Paclitaxel, 5,20-Epoxy-1,2,4,7,10-13-hexahydroxytax-11-en-9-one-4,10-diacetate 2-benzoate 13-ester with (2R,3S)—N-benzoyl-3-phenylisoserine], the “bioavailability of orally administered paclitaxel” value was “approximately 13.4%”.
